According to patent US10214520B2, “Substituted azaspiro(4.5)decane derivatives” (priority 2014, dated 2019):
Where two headings read alike, the source gives them in different places.

Sequences of proteins named here, by UniProt entry; tags and fusion partners are left off. A change or cut given only in a name is not applied to a line headed by its entry.
UniProt P41146: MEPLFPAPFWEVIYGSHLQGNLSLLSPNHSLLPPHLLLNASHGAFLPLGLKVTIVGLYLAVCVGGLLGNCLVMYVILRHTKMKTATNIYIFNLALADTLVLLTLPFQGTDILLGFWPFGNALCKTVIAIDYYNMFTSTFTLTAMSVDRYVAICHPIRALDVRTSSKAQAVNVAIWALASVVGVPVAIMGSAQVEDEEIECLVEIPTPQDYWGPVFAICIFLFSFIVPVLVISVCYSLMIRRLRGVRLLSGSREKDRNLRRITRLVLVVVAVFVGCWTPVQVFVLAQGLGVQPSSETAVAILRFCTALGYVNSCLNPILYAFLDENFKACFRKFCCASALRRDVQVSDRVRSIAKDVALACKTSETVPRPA
UniProt P35372, whole entry, looked up: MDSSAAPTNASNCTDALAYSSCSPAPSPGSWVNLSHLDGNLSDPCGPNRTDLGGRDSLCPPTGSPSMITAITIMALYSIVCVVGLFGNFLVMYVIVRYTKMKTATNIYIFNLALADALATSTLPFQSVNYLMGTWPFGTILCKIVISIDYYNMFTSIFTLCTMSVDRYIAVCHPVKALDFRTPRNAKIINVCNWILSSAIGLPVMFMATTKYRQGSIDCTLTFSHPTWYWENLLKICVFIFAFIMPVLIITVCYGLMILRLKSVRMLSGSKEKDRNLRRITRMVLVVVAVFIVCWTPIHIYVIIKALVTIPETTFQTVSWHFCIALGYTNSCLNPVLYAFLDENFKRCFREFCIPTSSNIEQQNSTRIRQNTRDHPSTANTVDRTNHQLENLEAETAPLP

Tests used:
ORL1 receptor = ORL1 receptor (Homo sapiens, UniProt P41146); settings: for ORL1 % Inhibition @ 1 μM / % inhibition (ORL1) [1 μM]: test concentration 1 μM
human μ opiate receptor = human μ opiate receptor (Homo sapiens, UniProt P35372); assay: μ opiate receptor binding assay with [3H]-naloxone, membrane preparation of CHO-K1 cells (WGA-SPA beads); settings: for MOP % Inhibition @1 μM / % inhibition (μ) [1 μM]: test concentration 1 μM
[1] = read-out: Ki (ORL1) mean [μm], mean
[2] = read-out: Ki (μ) mean [μm], mean

Compound | Ki (ORL1 receptor; read-out: ORL1 Ki) [nM] | ORL1 % Inhibition @ 1 μM (ORL1 receptor) [%] | Ki (human μ opiate receptor; read-out: MOP Ki) [nM] | MOP % Inhibition @1 μM (human μ opiate receptor) [%] | further results
CN(C)C1(c2ccccc2)CCC2(CCN(C(=O)Cc3cccnc3)C2)CC1 (centres unmarked) | 23.3 | 82 | 3.1 | 101 | 
CN(C)C1(c2cccs2)CCC2(CCN(Cc3ccccc3)C2=O)CC1 (centres unmarked) |  |  |  |  | Ki (ORL1 receptor; [1]): 915 nM; % inhibition (ORL1) [1 μM] (ORL1 receptor): 27%; Ki (human μ opiate receptor; [2]): 5.1 nM; % inhibition (μ) [1 μM] (human μ opiate receptor): 95%
CN(CC(N)=O)C(=O)CN1C[C@]2(CC[C@@](c3ccccc3)(N(C)C)CC2)CC1=O | 265 | 58 | 310 | 72 | 
Cis-4-(8-Dimethylamino-3-oxo-8-pyridin-2-yl-2-azaspiro[4.5]decan-2-yl)-2,2-dimethyl-butyramide | 175 | 57 | 270 | 75 | 
CN(C)C(=O)CNC(=O)C(C)(C)CCN1C[C@]2(CC[C@@](c3ccccc3)(N(C)C)CC2)CC1=O | 165 | 60 | 162 | 85 | 
CN(C)C1(c2ccccc2)CCC2(CCN(C(=O)CC3COC(=O)OC3)C2)CC1 (centres unmarked) |  |  |  |  | Ki (ORL1 receptor; [1]): 43 nM; % inhibition (ORL1) [1 μM] (ORL1 receptor): 73%; Ki (human μ opiate receptor; [2]): 27.5 nM; % inhibition (μ) [1 μM] (human μ opiate receptor): 95.5%
CN(C)[C@]1(c2ccccc2)CC[C@]2(CC1)CC(=O)N(CCC1(C(N)=O)CCOCC1)C2 | 20.5 | 96 | 51 | 97 | 
CN(C)[C@]1(c2ccccc2)CC[C@]2(CC1)CC(=O)N(CC(=O)NCC#N)C2 | 27.5 | 71 | 37.5 | 97 | 
CN(C)[C@]1(c2ccccc2)CC[C@]2(CC1)CC(=O)N(CC(=O)NCCS(C)(=O)=O)C2 | 71.3 | 70 | 61 | 91 | 
CN(C)[C@]1(c2ccccn2)CC[C@]2(CC1)CC(=O)N(CC(N)=O)C2 | 1700 | 9 | 2640 | 30 | 
CN(C)[C@]1(c2ccccc2)CC[C@]2(CC1)CC(=O)N(CCC(C)(C)C(=O)Nc1cncnc1)C2 | 19.5 | 85 | 5.7 | 98 | 
CN(C)[C@]1(c2ccccc2)CC[C@]2(CC1)CC(=O)N(CCC(C)(C)C(=O)NCC(N)=O)C2 | 215 | 60 | 180 | 83 | 
CN(C)[C@]1(c2ccccc2)CC[C@]2(CC1)CC(=O)N(CC1(C(N)=O)CCC1)C2 | 14.5 | 91 | 14.5 | 94 | 
Cis-3-[8-Dimethylamino-8-(3-methoxy-propyl)-3-oxo-2-azaspiro[4.5]decan-2-yl]-2,2-dimethyl-propionamide 2,2,2-trifluoro acetate |  | 10 | 2020 | 27 | 
CN(C)[C@]1(c2ccccc2)CC[C@]2(CC1)CC(=O)N(CCCNC(=O)c1ccncc1)C2 | 655 | 37 | 185 | 80 | 
CN(C)[C@]1(c2ccccc2)CC[C@]2(CC1)CC(=O)N(CC(=O)Nc1cnc(C(F)(F)F)nc1)C2 | 415 | 44 | 180 | 79 | 
CN(C)[C@]1(c2ccccc2)CC[C@]2(CC1)CC(=O)N(CCCC(N)=O)C2 | 107 | 52 | 125 | 66 | 
CN(C)[C@]1(c2ccccc2)CC[C@]2(CC1)CC(=O)N(CC(=O)O)C2 | 753 |  | 697 |  | Ki (ORL1 receptor; read-out: ORL1 Ki, hydrochloride): 1130 nM; ORL1 % Inhibition @ 1 μM (ORL1 receptor; 1 µM): 34%; ORL1 % Inhibition @ 1 μM (ORL1 receptor; hydrochloride, 1 µM): 27%; Ki (human μ opiate receptor; read-out: MOP Ki, hydrochloride): 1680 nM; MOP % Inhibition @1 μM (human μ opiate receptor; 1 µM): 58%; MOP % Inhibition @1 μM (human μ opiate receptor; hydrochloride, 1 µM): 31%
CN(C)C1(C2CCCC2)CCC2(CC1)CC(=O)N(Cc1ccccc1)C2 (centres unmarked) |  |  |  |  | Ki (ORL1 receptor; [1]): 34.7 nM; % inhibition (ORL1) [1 μM] (ORL1 receptor): 75.5%; Ki (human μ opiate receptor; [2]): 5.95 nM; % inhibition (μ) [1 μM] (human μ opiate receptor): 98.5%
CN(C)[C@]1(c2ccccc2)CC[C@]2(CC1)CC(=O)N(CC(=O)NCc1ccccc1)C2 | 3.8 | 93 | 3.1 | 101 | 
Cc1ccc(C2(N(C)C)CCC3(CCN(C(=O)c4ccccn4)C3)CC2)s1 (centres unmarked) |  |  |  |  | Ki (ORL1 receptor; [1]): 370 nM; % inhibition (ORL1) [1 μM] (ORL1 receptor): 26%; Ki (human μ opiate receptor; [2]): 79 nM; % inhibition (μ) [1 μM] (human μ opiate receptor): 80.5%
CN(C)C1(c2ccccc2)CCC2(CC1)CC(=O)N(CC(=O)NC(C)(C)C#N)C2 (centres unmarked) | 40.5 | 87 | 10.3 | 94 | 
CN(C)[C@]1(c2ccccc2)CC[C@]2(CC1)CC(=O)N(CCC(C)(C)C(N)=O)C2 | 18 | 94 | 26 | 98 | 
CN(C)C1(c2cccs2)CCC2(CCN(Cc3ccncc3F)C2)CC1 (centres unmarked) |  |  |  |  | Ki (ORL1 receptor; [1]): 15 nM; % inhibition (ORL1) [1 μM] (ORL1 receptor): 82%; Ki (human μ opiate receptor; [2]): 2.9 nM; % inhibition (μ) [1 μM] (human μ opiate receptor): 98%

Compound | Ki (ORL1 receptor; read-out: ORL1 Ki) [nM] | ORL1 % Inhibition @ 1 μM (ORL1 receptor) [%] | Ki (human μ opiate receptor; read-out: MOP Ki) [nM] | MOP % Inhibition @1 μM (human μ opiate receptor) [%] | further results
Trans-2,2-Dimethyl-3-(8-methylamino-3-oxo-8-pyridin-2-yl-2-azaspiro[4.5]decan-2-yl)-propionamide |  | 5 |  | 22 | 
COC(=O)c1ccc(N2C[C@]3(CC[C@@](c4ccccc4)(N(C)C)CC3)CC2=O)cc1 |  | 30 |  | 90 | 
CN(C)[C@]1(c2ccccc2)CC[C@]2(CC1)CC(=O)N(CCCNC(=O)c1ccncn1)C2 | 223 | 45 | 89 | 87 | 
CN(C)[C@]1(c2ccccc2)CC[C@@]2(CC1)CC(=O)N(c1csc(-c3ccncc3)n1)C2 | 210 |  | 345 |  | 
CN(C)C1(c2ccccc2)CCC2(CCN(C(=O)C(C)(C)C(N)=O)C2)CC1 (centres unmarked) | 160 | 55 | 56 | 87 | 
CN(C)[C@]1(c2ccccc2)CC[C@]2(CC1)CC(=O)N(Cc1ccccc1C(=O)O)C2 | 6.7 | 93 | 4 | 100 | 
CN(C)C1(c2ccccc2)CCC2(CCN(C(=O)c3cccs3)C2)CC1 (centres unmarked) |  |  |  |  | Ki (ORL1 receptor; [1]): 1.08 nM; % inhibition (ORL1) [1 μM] (ORL1 receptor): 97%; Ki (human μ opiate receptor; [2]): 1.15 nM; % inhibition (μ) [1 μM] (human μ opiate receptor): 100%
CN(C)[C@]1(c2ccccc2)CC[C@]2(CC1)CC(=O)N(CC(C)(C)C(=O)NCCO)C2 | 150 | 55 | 200 | 78 | 
(E)-1-[8-(5-Chlorothiophen-2-yl)-8-dimethylamino-2-azaspiro[4.5]dec-2-yl]-3-phenylpropenone |  |  |  |  | Ki (ORL1 receptor; [1]): 31.5 nM; % inhibition (ORL1) [1 μM] (ORL1 receptor): 83.5%; Ki (human μ opiate receptor; [2]): 3.25 nM; % inhibition (μ) [1 μM] (human μ opiate receptor): 102%
CN(C)C1(c2ccccc2)CCC2(CC1)CC(=O)N(CC(C)(C)C(=O)NC1CCS(=O)(=O)CC1)C2 (centres unmarked) | 1430 | 26 | 400 | 58 | 
CN(C)[C@]1(c2ccccc2)CC[C@]2(CC1)CC(=O)N(CCC(=O)Nc1cccnc1)C2 | 102 | 69 | 72 | 98 | 
Cc1ccc(C2(N(C)C)CCC3(CCN(C(=O)c4cccnc4)C3)CC2)s1 (centres unmarked) |  |  |  |  | Ki (ORL1 receptor; [1]): 295 nM; % inhibition (ORL1) [1 μM] (ORL1 receptor): 36%; Ki (human μ opiate receptor; [2]): 270 nM; % inhibition (μ) [1 μM] (human μ opiate receptor): 56.5%
Cc1ccc(C2(N(C)C)CCC3(CCN(C(=O)/C=C/c4ccccc4)C3)CC2)s1 (centres unmarked) |  |  |  |  | Ki (ORL1 receptor; [1]): 4.95 nM; % inhibition (ORL1) [1 μM] (ORL1 receptor): 97%; Ki (human μ opiate receptor; [2]): 1.3 nM; % inhibition (μ) [1 μM] (human μ opiate receptor): 103%
CN(C)[C@]1(c2ccccc2)CC[C@]2(CC1)CC(=O)N(CCC(C)(C)C(=O)NCc1ccncn1)C2 | 220 | 54 | 85.5 | 90 | 
CC(=O)NCCC(=O)N1CCC2(CCC(c3ccccc3)(N(C)C)CC2)C1 (centres unmarked) | 227 | 60 | 69 | 90 | 
CN(C)[C@]1(c2ccccc2)CC[C@]2(CC1)CC(=O)N(CCC(C)(C)C(=O)Nc1ccncn1)C2 | 77 | 74 | 5.4 | 95 | 
CN(C)C(=O)CNC(=O)CN1CC2(CCC(c3ccccc3)(N(C)C)CC2)CC1=O (centres unmarked) | 275 | 52 | 150 | 81 | 
CN1CC(CCN2CC3(CCC(c4cccs4)(N(C)C)CC3)CC2=O)C1 (centres unmarked) |  |  |  |  | Ki (ORL1 receptor; [1]): 17 nM; % inhibition (ORL1) [1 μM] (ORL1 receptor): 90%; Ki (human μ opiate receptor; [2]): 7.7 nM; % inhibition (μ) [1 μM] (human μ opiate receptor): 98.5%
CN(C)C1(c2ccccc2)CCC2(CC1)CC(=O)N(CC(=O)NC1CCS(=O)(=O)CC1)C2 (centres unmarked) | 1110 | 15 |  | 56 | 
CN(C)[C@]1(c2ccccc2)CC[C@]2(CC1)CC(=O)N(CCC(C)(C)C(=O)NC1(C#N)CC1)C2 | 225 | 59 | 30 | 97 | 
COc1ncc(N2CC3(CCC(c4ccccc4)(N(C)C)CC3)CC2=O)cn1 (centres unmarked) | 102 |  | 140 |  | 
CN(C)[C@]1(c2ccccc2)CC[C@]2(CC1)CC(=O)N(CCC(=O)NCCC#N)C2 | 300 | 63 | 100 | 87 | 
CN(C)C1(c2ccccc2)CCC2(CCN(C(=O)CCCc3ccncc3)C2)CC1 (centres unmarked) | 6.1 | 76 | 10.1 | 100 | 
Cis-4-[8-Dimethylamino-8-(3-methoxy-propyl)-3-oxo-2-azaspiro[4.5]decan-2-yl]-butyramide 2,2,2-trifluoro acetate |  | −2 | 5900 | 11 | 
